The source of these data is patent US10556889B1, “Salvinorin derivatives” (Blue Sky Pharmaceuticals, LLC, priority 2018, dated 2020).

The chains behind the UniProt entries cited, without tags or fusion partners.
UniProt P42866, whole entry: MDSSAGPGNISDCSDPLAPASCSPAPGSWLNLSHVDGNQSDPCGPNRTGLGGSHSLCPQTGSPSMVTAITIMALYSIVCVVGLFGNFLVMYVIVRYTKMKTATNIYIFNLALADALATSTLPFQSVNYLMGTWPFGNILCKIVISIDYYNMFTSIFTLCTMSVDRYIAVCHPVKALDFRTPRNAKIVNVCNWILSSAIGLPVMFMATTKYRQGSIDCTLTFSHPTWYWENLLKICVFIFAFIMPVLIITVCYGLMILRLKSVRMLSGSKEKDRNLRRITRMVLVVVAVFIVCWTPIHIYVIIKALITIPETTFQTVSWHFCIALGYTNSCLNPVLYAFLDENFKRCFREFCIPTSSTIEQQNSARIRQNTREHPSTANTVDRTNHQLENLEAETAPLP

Structures are written as SMILES.

The target in test [1] is T1, uOR (Mus musculus, UniProt P42866). The test is described as follows: Agonist induced ERK 1/2 phosphorylation (efficacy and potency relative to DAMGO).
Test [2] deals with T1, uOR. Kind of test: β-arrestin recruitment to uOR / receptor internalization. Type of test: cell-based. Also noted: expressed in transfected cells. From the text: The data provided in Tables 1A and 1B below were obtained using standard analytical techniques known to those skilled in the art. Such techniques are described in detail in C.
[…] were transiently transfected (electroporation) with combinations of cDNA for hemagglutinin (HA-N terminus)-tagged uOR, beta-arrestin2 tagged with green fluorescent protein, mouse uOR tagged at the C terminus with yellow fluorescent protein and GRK-2. […] After addition of drug, cells were visualized using confocal microscopy. Multiple cells were recorded per dish after more than four separate transfection experiments—representative cells are shown in the manuscript.
The “β-arrestin Recruitment EC50±SEM” column in Table 2 below represents the degree to which each tested compound recruited beta-arrestin to interact with uOR. As will be appreciated by those skilled in the art, EC50 refers to the concentration of a drug which induces a response halfway between the baseline and maximum after a specified exposure time. In this instance, lower values indicate greater potency of the molecule, and this is […].
As will also be understood by those skilled in the art, “Max Fold Efficacy” refers to the maximum signal/background ratio that an agonist will induce or, conversely, that an antagonist will inhibit an agonist from inducing a response. […]
A general note: Activated receptors often draw arrestin, which recruitment assays turn into a signal.

Take `COC(=O)[C@@H]1C[C@H](OC(=O)c2ccc(Br)cc2)C(=O)[C@H]2[C@@]1(C)CC[C@H]1C(=O)O[C@H](c3ccoc3)C[C@]21C`: the EC50 at uOR [1] is 6.85 µM; on uOR [2], greater than 10 µM. Further, at uOR [2], the “Max Fold Efficacy” value worked out at 2.7.

The EC50 is the concentration needed to bring the measured effect to its halfway point.
